# Molecular target: Neuronal acetylcholine receptor; alpha4/beta2 (Rattus norvegicus, UniProt P09483+P12390)
# The chains behind the UniProt entries cited, without tags or fusion partners. Residues count along the entry.
# UniProt P09483, 31-630 limits assumed: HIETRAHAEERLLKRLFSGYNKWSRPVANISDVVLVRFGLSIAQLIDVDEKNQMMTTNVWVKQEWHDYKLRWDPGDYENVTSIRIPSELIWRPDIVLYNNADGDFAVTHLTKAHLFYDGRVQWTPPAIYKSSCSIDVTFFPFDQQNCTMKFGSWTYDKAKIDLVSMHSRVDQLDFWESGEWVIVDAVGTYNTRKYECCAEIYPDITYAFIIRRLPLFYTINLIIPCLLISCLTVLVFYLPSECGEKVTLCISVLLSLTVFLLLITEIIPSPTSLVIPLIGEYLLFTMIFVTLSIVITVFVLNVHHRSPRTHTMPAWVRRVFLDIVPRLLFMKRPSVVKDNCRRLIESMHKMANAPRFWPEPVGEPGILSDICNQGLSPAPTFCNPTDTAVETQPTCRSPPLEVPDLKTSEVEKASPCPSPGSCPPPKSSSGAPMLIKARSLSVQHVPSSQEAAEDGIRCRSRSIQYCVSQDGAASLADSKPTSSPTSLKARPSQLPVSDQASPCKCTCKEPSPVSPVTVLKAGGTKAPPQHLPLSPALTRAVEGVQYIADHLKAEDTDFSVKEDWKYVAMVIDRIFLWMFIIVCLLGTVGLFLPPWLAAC
# UniProt P12390, 25-500 limits assumed: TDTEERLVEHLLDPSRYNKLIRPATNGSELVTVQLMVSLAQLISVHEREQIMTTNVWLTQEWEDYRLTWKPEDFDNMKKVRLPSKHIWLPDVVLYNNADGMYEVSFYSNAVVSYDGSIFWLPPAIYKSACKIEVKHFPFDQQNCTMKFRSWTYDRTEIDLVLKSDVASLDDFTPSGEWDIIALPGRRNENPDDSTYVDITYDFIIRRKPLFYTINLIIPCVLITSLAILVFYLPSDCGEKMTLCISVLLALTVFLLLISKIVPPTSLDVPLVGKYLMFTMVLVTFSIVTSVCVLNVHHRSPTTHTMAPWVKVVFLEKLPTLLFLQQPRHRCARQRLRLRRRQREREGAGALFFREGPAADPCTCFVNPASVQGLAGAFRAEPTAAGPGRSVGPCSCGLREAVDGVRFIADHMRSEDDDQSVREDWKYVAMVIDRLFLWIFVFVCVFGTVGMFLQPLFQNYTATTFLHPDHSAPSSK
# Experiment: Binding affinity at rat brain Nicotinic acetylcholine receptor alpha4-beta2
# Outline: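 Rat brain P2 membranes (250 μg protein) competed against 10 nM (–)-[3H]nicotine, 30 min room temperature then 1 h at 4 °C; filtration. Nonspecific binding with 1 mM (–)-nicotine.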
compound,measurement,value
CC(=O)C1=CCCC2CCC1N2 (stereo unspecified),Ki,1.25 nM
